Here are results for one molecule from article PMC2736550 (Molecular microbiology, 2008).

Among the targets are ChuA (Escherichia coli, UniProt A0A0H2VC22); IutA (Escherichia coli, UniProt A0A0H2VAM3); Hma (Escherichia coli, UniProt A0A0H2V8J2).
Holding throughout (assay): biochemical

The structures appear in SMILES notation. pKd: −log10 of the molar value.

As for `C=CC1=C(C)C2=Cc3c(C=C)c(C)c4[n]3[Fe]([Cl])[n]3c(c(C)c(CCC(=O)O)c3=CC3=NC(=C4)C(C)=C3CCC(=O)O)=CC1=N2` [hemin], the negative-log Kd (pKd) on ChuA is 5.10; at IutA it was 4.05; on Hma it was 5.10.

A word on the pKd: it is the Kd on a negative log10 scale, so that one unit is a factor of ten. High values mean a low Kd, low ones a high Kd.
